The numbers were not newly measured in US20250195714A1, “DEVICES AND METHODS OF TREATING WOUNDS” (University of Massachusetts, priority 2022, published 2025), which cites them from elsewhere.

This data set deals with keratinocyte and fibroblast cell cultures. Conditions: prolonged exposure; cited from earlier work.

Regarding `NC[C@H]1CC[C@H](C(=O)O)CC1` [TXA, tranexamic acid], the cytotoxicity entry is recorded as “can be cytotoxic”.
